Data reported in patent US7399869B2, “Fibroblast activation protein inhibitor compounds and methods” (Genentech, Inc., priority 2005, dated 2008).

By UniProt entry, the sequences of proteins in these tests, tags left out. Residues count along the entry.
UniProt Q12884, 38-760 limits assumed: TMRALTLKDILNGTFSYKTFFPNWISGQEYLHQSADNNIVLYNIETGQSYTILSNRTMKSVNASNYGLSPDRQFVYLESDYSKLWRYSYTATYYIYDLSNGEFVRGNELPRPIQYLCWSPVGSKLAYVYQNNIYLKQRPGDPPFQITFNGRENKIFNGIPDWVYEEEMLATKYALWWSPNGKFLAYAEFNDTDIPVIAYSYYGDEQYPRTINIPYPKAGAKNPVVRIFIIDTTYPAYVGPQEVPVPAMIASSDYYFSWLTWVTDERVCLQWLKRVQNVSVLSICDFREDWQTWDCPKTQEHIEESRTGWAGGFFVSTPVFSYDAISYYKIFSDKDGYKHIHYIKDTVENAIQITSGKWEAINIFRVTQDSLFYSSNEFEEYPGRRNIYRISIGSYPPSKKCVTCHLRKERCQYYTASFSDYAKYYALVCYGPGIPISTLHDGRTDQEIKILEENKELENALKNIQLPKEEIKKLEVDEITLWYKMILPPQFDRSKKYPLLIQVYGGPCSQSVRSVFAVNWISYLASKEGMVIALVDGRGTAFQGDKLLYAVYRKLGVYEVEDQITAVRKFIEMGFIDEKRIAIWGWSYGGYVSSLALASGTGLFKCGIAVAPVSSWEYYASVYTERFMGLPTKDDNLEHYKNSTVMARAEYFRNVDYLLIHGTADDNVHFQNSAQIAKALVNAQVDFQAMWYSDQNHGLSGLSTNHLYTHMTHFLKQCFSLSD
UniProt P27487, 39-766 limits assumed: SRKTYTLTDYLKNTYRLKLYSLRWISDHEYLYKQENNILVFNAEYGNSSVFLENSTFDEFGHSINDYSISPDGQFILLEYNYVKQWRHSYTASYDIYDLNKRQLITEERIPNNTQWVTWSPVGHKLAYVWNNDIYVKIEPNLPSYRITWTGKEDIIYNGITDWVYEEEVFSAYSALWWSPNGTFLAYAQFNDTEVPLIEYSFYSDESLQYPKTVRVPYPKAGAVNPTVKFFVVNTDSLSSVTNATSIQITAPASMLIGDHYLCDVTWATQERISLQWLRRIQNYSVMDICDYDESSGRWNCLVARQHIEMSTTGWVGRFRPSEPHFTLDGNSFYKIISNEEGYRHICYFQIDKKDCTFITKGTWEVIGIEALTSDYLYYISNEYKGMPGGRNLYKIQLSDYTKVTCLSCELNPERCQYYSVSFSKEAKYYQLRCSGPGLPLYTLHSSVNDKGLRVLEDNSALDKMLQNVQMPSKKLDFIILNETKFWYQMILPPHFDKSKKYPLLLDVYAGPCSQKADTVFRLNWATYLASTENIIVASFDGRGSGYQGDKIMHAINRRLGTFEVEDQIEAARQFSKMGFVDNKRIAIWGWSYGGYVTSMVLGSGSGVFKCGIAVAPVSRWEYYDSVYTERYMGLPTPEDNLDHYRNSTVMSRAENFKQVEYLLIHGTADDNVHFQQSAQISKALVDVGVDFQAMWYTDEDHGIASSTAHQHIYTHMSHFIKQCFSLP

What was measured:
FAP [1] = target: T1, FAP (Homo sapiens, UniProt Q12884); assay: Inhibition of FAP activity against Ala-Pro-AFC by P2-Pro-AMCC compounds; conditions: read-out: FAP Ki
FAP [2] = target: T1, FAP; assay: Relative cleavage rates of coumarin (AMCC) dipeptide substrates by FAP; conditions: P2-Pro-AMCC substrates; hydrolysis rates normalized to Gly-Pro-AMCC
DPP-4 [3] = target: T2, DPP-4 (Homo sapiens, UniProt P27487); assay: Relative cleavage rates of coumarin (AMCC) dipeptide substrates by DPP-4; conditions: P2-Pro-AMCC substrates; hydrolysis rates normalized to Gly-Pro-AMCC
DPP-4 [4] = target: T2, DPP-4; assay: Inhibition of DPP-4 activity against Ala-Pro-AFC by P2-Pro-AMCC compounds; conditions: read-out: DPP-4 Ki

- Ki (FAP [1]): 67 nM
- Relative Hydrolysis rate by FAP (FAP [2]): 0
- Relative Hydrolysis rate by DPP-4 (DPP-4 [3]): 0
- Ki (DPP-4 [4]): > 1000 nM
SMILES: CC(=O)N[C@H](C(=O)N1CCC[C@H]1C(=O)Nc1ccc2c(C)c(CC(N)=O)c(=O)oc2c1)C1CCCCC1
